Antibody variant affinities, Ab-14 light chain, assay B

Data: MIT Lincoln Laboratory AlphaSeq set, Li et al. 2023, doi:10.1038/s41467-023-39022-2, as distributed in FLAb.

The target is the same throughout: PDVDLGDISGINAS, from the HR2 region of SARS-CoV-2 spike.

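The parent was found by panning a naive human phage display library on the peptide. These sequences belong to a second round, designed from the earlier measurements on random variants of the parent. Group labels follow the data file (Ctrl: baseline library sampled from a position-specific scoring matrix, with some repeated check sequences; Rand: our label for a block that the file lists under HC and that is probably the random mutants of the ten best first-round binders; GP: Gaussian process model; GPLM: also part of the Gaussian process libraries; HC: hill climbing; Gen: genetic algorithm; Gibbs: Gibbs sampling; a sequence that several methods proposed may carry one label only). AlphaSeq pools MATa yeast showing the antibodies with MATalpha yeast showing the peptide. Pairs that bind mate more often; barcode pairs of the diploids are counted by sequencing. Scores were corrected for input abundance and mapped to Kd with protein pairs of known affinity run in the same pool. Each pool was mated in six replicate cultures.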

Parent: Ab-14, a human scFv built as VH, a (GGGGS)3 linker, VL. Only the CDRs of the light chain vary.
VH: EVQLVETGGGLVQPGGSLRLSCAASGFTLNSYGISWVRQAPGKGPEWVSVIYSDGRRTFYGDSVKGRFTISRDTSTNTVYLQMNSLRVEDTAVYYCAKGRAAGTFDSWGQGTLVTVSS
VL: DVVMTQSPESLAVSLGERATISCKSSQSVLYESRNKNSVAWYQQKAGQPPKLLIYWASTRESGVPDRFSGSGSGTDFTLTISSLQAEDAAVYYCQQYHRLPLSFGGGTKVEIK

The parent's light chain CDRs are KSSQSVLYESRNKNSVA, WASTRES, QQYHRLPLS; each variant's own CDRs replace them letter for letter. Variants here have at most six changes. Values are apparent Kd, the geometric mean of the replicates that gave a signal; lower means stronger binding. An entry "nd" has no value in the source: the pair was not observed among the diploids in any replicate. This suggests poor binding but is not conclusive. Values of this round are not directly comparable with the first-round values of the same sequences. The authors' rule: three or more of the six replicates give a measured affinity, fewer mean a poor binder. Empty control strains, which show no peptide, gave a signal in 4% of pairings with all light chain designs; the median was 430 nM and 95% of these signals were weaker than 38 nM. No background was subtracted.

- KDSQEKLYESRNKNSVA / DASTRES / QQYHRLPLS [GP_HC] = 840 pM (6 of 6 replicates)
- KLEQSQLYESRNKNSVA / NASERES / QQYHRLPLS [GP_Gen] = 1.2 nM (6 of 6 replicates)
- AFSQSVLYESRNQNSVA / EASTRCD / QQYHRLPLS [GP_Gibbs] = 790 pM (6 of 6 replicates)
- KISQSVLYESRNKNNVA / NASTRES / QQYHRLPLS [GP_Gen] = 360 pM (6 of 6 replicates)
- KNSQSWTYEQRNKNSVA / RASTRES / QQYHRLPLS [Ctrl] = 27 nM (6 of 6 replicates)
- KFSQSVYYESRTKNSVA / NASTRES / QQYHRLPLS [GP_HC] = 1.5 nM (6 of 6 replicates)
- KVSQSEPYESRNKNSVA / NASTRMS / QQYHRLPLS [GP_Gen] = 3.0 nM (6 of 6 replicates)
- KLIQEVSYESRNKNSVA / WASTRES / QQYQRLPLS [Ctrl] = 190 nM (5 of 6 replicates)
- KLSQSVDYESRNKNSVA / NASTRES / QQYHRLPLS [GP_Gen] = 580 pM (6 of 6 replicates)
- KSGQGVLYESRNKNSVA / GVSTRES / QQYHRLPLS [GP_HC] = 840 pM (6 of 6 replicates)
- KSGQGVLYESRNKNSVA / GASTRET / QQYHRLPLS [GPLM_HC] = 1.1 nM (6 of 6 replicates)
- KSSQSVLYESRNKNSVA / NASTRES / QQYHRLVLS [Ctrl] = 20 nM (6 of 6 replicates)
- KLQQSVLYESRNKNSVA / HASTRES / QQYHRLPLS [GP_Gen] = 1.0 nM (6 of 6 replicates)
- KSSQSVLYESRNKNSVA / WASTREY / QQYHRLPLS [Ctrl] = 33 nM (6 of 6 replicates)
- IISQSVLDESRNKNSVA / DASTRES / QQYHRLPLS [GP_HC] = 9.1 nM (6 of 6 replicates)
- KLSQSVLYESRDKNSVA / WASTRES / QQYHRLPLP [Ctrl] = nd (0 of 6 replicates)
- KLSESELYESRNKNSVA / NASTRES / QQYHRLPLS [GP_Gen] = 1.6 nM (6 of 6 replicates)
- HSSPSVLYESRNKNSVA / NASTRES / QWYRRLPLS [Rand] = 22 nM (6 of 6 replicates)
- KLSQSEGYESRNKNSVA / NASQRES / QQYHRLPLS [GP_Gen] = 2.0 nM (6 of 6 replicates)
- KSSQSVLYESRNKNSVA / WASTRES / QQKHRLPLS [Ctrl] = nd (0 of 6 replicates)
- KSNQSVLYESRNCNSVA / WASTRES / QQYHRLPLS [Ctrl] = 1.5 µM (4 of 6 replicates)
- KSSQSYLQESRNKNSVA / WASTRES / QQYHRLPLS [Ctrl] = 49 nM (3 of 6 replicates)
- KLSQSVLYESRNKNSVA / WAVTRES / QQYHRLPLS [Ctrl] = 11 nM (6 of 6 replicates)
- KLSGSWLYESRNKNSVA / EASTRES / QQYHRLPLS [GP_Gen] = 940 pM (6 of 6 replicates)
- KLSQSELYESRQKNSVA / NASQRES / QQYHRLPLS [GP_Gen] = 710 pM (6 of 6 replicates)
- KSSISYLYESRNKNSVA / EASTRED / QQYHRLPLM [GP_HC] = 610 pM (6 of 6 replicates)
- KLSQSVLYESHNKNSVA / QASTRES / QQYHHLPLS [Ctrl] = 1.1 nM (6 of 6 replicates)
- NISQSWLYESRNKNSVA / GGNTRES / QQYHRLPLS [GP_HC] = 1.4 nM (6 of 6 replicates)
- KLEQSQLYESRMKNSVA / NASTRES / QQYHRLPLS [GP_Gen] = 1.3 nM (6 of 6 replicates)
- KSSESVLYESRNKNSVA / WASTRES / QQYHRLMLS [Ctrl] = nd (0 of 6 replicates)
- KVSQSQLYESRNKNSVA / DASQRES / QQYHRLPLS [GP_Gen] = 4.9 nM (6 of 6 replicates)
- KLSQSELYESRMKNSVA / NASERES / QQYHRLPLS [GP_Gen] = 930 pM (6 of 6 replicates)
- KSSQSVLKESRNKNSVA / WASTRGS / QQYHRLPLS [Ctrl] = nd (0 of 6 replicates)
- ASSQSVLYESRNTNSVA / WASTRES / QQYHRLPLS [Ctrl] = 130 nM (1 of 6 replicates)
- KLSQSHLYESRNKNSVA / HASLRLS / QCYHRLPLS [GP_Gibbs] = 130 nM (5 of 6 replicates)
- KSSQSLLYESRNKNSVA / GASTRES / QQYHRLPLS [Ctrl] = 1.3 nM (6 of 6 replicates)
- KRTQSWLYESRNKNSVA / DASTRES / QQYHRLPLS [Ctrl] = 3.4 nM (6 of 6 replicates)
- KISQSVQYMSRNKNSVA / WASTRES / QQYHRLPLS [Ctrl] = 13 nM (6 of 6 replicates)
- KLSQSTLYESRNKNSVA / DASTRLS / QQYHRLPLS [GP_Gen] = 480 pM (6 of 6 replicates)
- KLEQSNLYESRNKNSVA / NASTRES / QQYHRLPLS [GP_Gen] = 1.6 nM (6 of 6 replicates)
- KSSPSVLYESRNKNSVA / MASTRES / QQYHRLPLS [Ctrl] = 190 nM (3 of 6 replicates)
- KLSQSALYESRNKNSVA / EASQRES / QQYHRLPLS [GP_Gen] = 1.5 nM (6 of 6 replicates)
- KASQSVLYEFPNKNSVA / HASTRES / QQYHRLPLS [Ctrl] = 12 nM (6 of 6 replicates)
- KISQSVGYESRNKNSVA / NASTRES / QQYHRLPLS [GP_Gen] = 590 pM (6 of 6 replicates)
- KSSQSVLYEKTNKNSVA / WASTRES / QQYHRLPNS [Ctrl] = nd (0 of 6 replicates)
- HLSESVLYESRNKNSVA / NASTRES / QQYHRLPLN [GP_HC] = 1.2 nM (6 of 6 replicates)
- KFSQWVLYEPRTKNSVA / NASTRES / QQYHRLPLS [GP_HC] = 3.1 nM (6 of 6 replicates)

Picked from the list: the 4 lowest averages where every replicate gave a value.

{"CDR-L1": "KISQSVLYESRNKNNVA", "CDR-L2": "NASTRES", "CDR-L3": "QQYHRLPLS", "group": "GP_Gen", "apparent Kd": "360 pM", "seen in": "6 of 6"}
{"CDR-L1": "KLSQSTLYESRNKNSVA", "CDR-L2": "DASTRLS", "CDR-L3": "QQYHRLPLS", "group": "GP_Gen", "apparent Kd": "480 pM", "seen in": "6 of 6"}
{"CDR-L1": "KLSQSVDYESRNKNSVA", "CDR-L2": "NASTRES", "CDR-L3": "QQYHRLPLS", "group": "GP_Gen", "apparent Kd": "580 pM", "seen in": "6 of 6"}
{"CDR-L1": "KISQSVGYESRNKNSVA", "CDR-L2": "NASTRES", "CDR-L3": "QQYHRLPLS", "group": "GP_Gen", "apparent Kd": "590 pM", "seen in": "6 of 6"}